For test [1], the target named is T1, MerTK (Mus musculus, UniProt Q60805).
T1 construct: endogenous in cells; host or cells: RAW264 cells
T1 sequence (Q60805 19-994): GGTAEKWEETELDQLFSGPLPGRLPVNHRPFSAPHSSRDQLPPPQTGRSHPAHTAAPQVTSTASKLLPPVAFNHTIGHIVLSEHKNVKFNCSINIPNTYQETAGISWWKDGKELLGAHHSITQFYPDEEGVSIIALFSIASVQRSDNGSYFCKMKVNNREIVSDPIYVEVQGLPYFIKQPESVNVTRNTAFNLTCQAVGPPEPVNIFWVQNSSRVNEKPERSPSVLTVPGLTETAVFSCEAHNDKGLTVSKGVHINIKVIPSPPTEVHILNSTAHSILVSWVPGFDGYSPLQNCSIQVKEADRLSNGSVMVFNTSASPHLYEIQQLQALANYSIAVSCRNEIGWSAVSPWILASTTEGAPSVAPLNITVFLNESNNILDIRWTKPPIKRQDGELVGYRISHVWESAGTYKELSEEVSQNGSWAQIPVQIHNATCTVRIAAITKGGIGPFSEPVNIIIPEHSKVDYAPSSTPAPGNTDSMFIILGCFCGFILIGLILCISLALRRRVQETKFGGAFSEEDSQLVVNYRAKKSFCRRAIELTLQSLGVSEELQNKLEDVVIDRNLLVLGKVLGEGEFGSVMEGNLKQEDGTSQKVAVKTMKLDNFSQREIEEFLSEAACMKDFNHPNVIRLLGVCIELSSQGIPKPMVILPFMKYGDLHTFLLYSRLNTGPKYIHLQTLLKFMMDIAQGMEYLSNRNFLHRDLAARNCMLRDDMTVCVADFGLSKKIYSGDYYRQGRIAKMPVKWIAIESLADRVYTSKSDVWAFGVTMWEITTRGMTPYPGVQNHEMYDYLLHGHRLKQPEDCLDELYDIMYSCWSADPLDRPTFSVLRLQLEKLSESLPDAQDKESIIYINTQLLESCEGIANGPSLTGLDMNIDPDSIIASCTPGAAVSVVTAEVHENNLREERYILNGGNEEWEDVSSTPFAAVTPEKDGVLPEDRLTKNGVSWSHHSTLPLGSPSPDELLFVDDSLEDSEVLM
The experiment in a line: MerTK degradation in RAW264 cells (Western blot). The test is classed as cell-based. Particulars: RAW264.7, 4 h, read-out: RAW264 Max % MerTK Degradation. The protocol: Compounds were reconstituted in DMSO to make 10 mM stock solutions. RAW264 cells were maintained in DMEM medium containing 10% FBS. Cells were seeded into 6-well plates with 2×10^6 cells per well. 2 μL of diluted compounds were added to cells to the final concentration of 0.001-1 μM. After a 4 hour-incubation at 37° C., cells were washed with DPBS (1×) once. Then RIPA lysis buffer with Halt Protease and Phosphatase Inhibitor Cocktail was added directly to the cells and cells were then incubated on ice for 10 min, then lysate was harvested into 1.5 mL Eppendorf tubes and centrifuged at 14,000 rpm for 10 min at 4° C. and the supernatants were collected for Western blots.
(§1) The protein concentration of cell lysates was quantified with Pierce™ BCA Protein Assay Kit. […] BCA working reagents were prepared by mixing BCA reagent A with reagent B in 50: 1 ratio. 200 μL of the BCA working reagents were added to 25 μL of BCA standard or cell lysates in microplate, and mixed thoroughly on a plate shaker for 30 seconds. After incubation at 37° C. for 30 min, the absorbance of samples at 562 nm were measured with EnVision Plate Reader.
Protein lysates were prepared in NuPAGE™ LDS sample buffer and NuPAGE™ sample reducing agent, and incubated at 95° C. for 5 min. […] The proteins were transferred to low fluorescence PVDF membranes using the Trans-Blot Turbo Transfer System. Membranes were then blocked in Odyssey blocking buffer at RT for 1 h followed by primary incubation at 4° C. overnight. The primary antibodies were MerTK goat polyclonal antibody and actin mouse monoclonal antibody. Membranes were washed three times with TBST (1×), and then incubated with IR Dye 800 CW Donkey anti-goat and IR Dye 700 CW Goat anti-mouse secondary antibodies in 1:10,000 dilution at RT for 1 h. The Western blot images were obtained using Odyssey Imaging System.

Test [2] concerns the target T2, MerTK (Homo sapiens, UniProt Q12866).
T2 construct: endogenous in cells; host or cells: Jurkat cells
T2 sequence (Q12866 21-999): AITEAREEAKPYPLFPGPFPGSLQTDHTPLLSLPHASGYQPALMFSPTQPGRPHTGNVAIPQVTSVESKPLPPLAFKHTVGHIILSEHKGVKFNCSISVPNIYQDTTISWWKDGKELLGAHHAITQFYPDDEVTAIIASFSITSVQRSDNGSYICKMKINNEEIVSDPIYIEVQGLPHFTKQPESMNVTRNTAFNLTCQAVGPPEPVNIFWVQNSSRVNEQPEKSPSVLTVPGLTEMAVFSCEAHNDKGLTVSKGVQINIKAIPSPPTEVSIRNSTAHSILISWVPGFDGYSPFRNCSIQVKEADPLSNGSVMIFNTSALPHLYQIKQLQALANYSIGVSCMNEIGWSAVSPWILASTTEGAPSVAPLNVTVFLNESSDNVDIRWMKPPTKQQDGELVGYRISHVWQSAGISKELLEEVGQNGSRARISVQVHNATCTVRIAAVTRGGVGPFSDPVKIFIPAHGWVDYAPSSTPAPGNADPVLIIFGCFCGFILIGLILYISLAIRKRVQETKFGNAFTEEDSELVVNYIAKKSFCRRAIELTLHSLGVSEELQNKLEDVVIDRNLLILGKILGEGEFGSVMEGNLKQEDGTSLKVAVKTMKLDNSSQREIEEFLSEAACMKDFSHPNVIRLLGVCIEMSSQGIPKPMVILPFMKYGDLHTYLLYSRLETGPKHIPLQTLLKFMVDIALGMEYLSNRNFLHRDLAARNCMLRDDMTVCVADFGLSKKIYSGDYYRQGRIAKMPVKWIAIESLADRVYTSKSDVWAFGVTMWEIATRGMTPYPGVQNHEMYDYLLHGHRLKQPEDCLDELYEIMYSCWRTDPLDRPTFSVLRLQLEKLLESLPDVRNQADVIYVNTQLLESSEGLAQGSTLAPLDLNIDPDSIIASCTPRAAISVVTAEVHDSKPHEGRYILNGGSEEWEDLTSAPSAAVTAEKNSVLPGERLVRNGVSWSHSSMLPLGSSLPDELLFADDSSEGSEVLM
The experiment in a line: MerTk degradation in Jurkat cells (Western blot). The class given is cell-based. Particulars: 0.001-1 μM, 4 hour-incubation at 37° C., read-out: Jurkat Max % MerTK Degradation. The protocol: Compounds were reconstituted in DMSO to make 10 mM stock solutions. […] Cells were seeded into 6-well plates with about 5×10^6 cells per well. 2 μL of diluted compounds were added to cells to the final concentration of 0.001-1 μM. After a 4 hour-incubation at 37° C., cells were collected into 2 mL Eppendorf tubes and centrifuged at 1,000 rpm for 5 min. The cell pellets were washed with DPBS (1×) once and resuspended in 60 μL RIPA lysis buffer with Halt Protease and Phophatase Inhibitor Cocktail. The cells were lysed on ice for 10 min, then centrifuged at 14,000 rpm for 10 min at 4° C. and the supernatants were collected for western blots.
as §1
Protein lysates were prepared in NuPAGE™ LDS sample buffer and NuPAGE™ sample reducing agent, and incubated at 95° C. for 5 min. […] The proteins were transferred to low fluorescence PVDF membranes using the Trans-Blot Turbo Transfer System. […]

Turning to `CCCCNc1ncc2c(-c3ccc(CNCCCOCCCOCCCc4ccc5c(c4)n(C)c(=O)n5C4CCC(=O)NC4=O)cc3)cn([C@H]3CC[C@H](O)CC3)c2n1` (stereo partly drawn) [I-7, Trans-3-[5-[3-(3-[3-[([4-[2-(butylamino)-7-[4-hydroxycyclohexyl]-7H-pyrrolo[2,3-d]pyrimidin-5-yl]phenyl]methyl)amino]propoxy]propoxy)propyl]-3-methyl-2-oxo-2,3-dihydro-1H-1,3-benzodiazol-1-yl]piperidine-2,6-dione formic acid], the Dmax at MerTK [1] was above 50%. Same read-out and setting: to `CCCCNc1ncc2c(-c3ccc(CN4CCN(CCCC(=O)NCCCOCCCOCCCc5ccc6c(c5)n(C)c(=O)n6C5CCC(=O)NC5=O)CC4)cc3)cn([C@H]3CC[C@H](O)CC3)c2n1` (stereo partly drawn) [I-9, Trans-4-[4-([4-[2-(butylamino)-7-[4-hydroxycyclohexyl]-7H-pyrrolo[2,3-d]pyrimidin-5-yl]phenyl]methyl)piperazin-1-yl]-N-[3-(3-[3-[1-(2,6-dioxopiperidin-3-yl)-3-methyl-2-oxo-2,3-dihydro-1H-1,3-benzodiazol-5-yl]propoxy]propoxy)propyl]butanamide bis(formic acid)] belongs above 50%; to `CCCCNc1ncc2c(-c3ccc(S(=O)(=O)N4CCN(C(=O)NCCCOCCCOCCCc5ccc6c(c5)n(C)c(=O)n6C5CCC(=O)NC5=O)CC4)cc3)nn([C@H]3CC[C@H](O)CC3)c2n1` (stereo partly drawn) [I-24, 4-((4-(6-(Butylamino)-1-(trans-4-hydroxycyclohexyl)-1H-pyrazolo[3,4-d]pyrimidin-3-yl)phenyl)sulfonyl)-N-(3-(3-(3-(1-(2,6-dioxopiperidin-3-yl)-3-methyl-2-oxo-2,3-dihydro-1H-benzo[d]imidazol-5-yl)propoxy)propoxy)propyl)piperazine-1-carboxamide], above 50%. With `CN1CCN(Cc2ccc(-c3cn([C@H]4CC[C@H](O)CC4)c4nc(NCCC(F)(F)F)ncc34)cc2)CC1` [I-148, Trans-4-(5-[4-[(4-methylpiperazin-1-yl)methyl]phenyl]-2-[(3,3,3-trifluoropropyl)amino]pyrrolo[2,3-d]pyrimidin-7-yl)cyclohexan-1-ol; formic acid], at MerTK [2], the Dmax was below 20%.

The values are drawn from patent US20260042762A1 (Kymera Therapeutics, Inc., priority 2018, published 2026).
